## Apparent affinities of Ab-14 variants for a coronavirus HR2 peptide

Values reported by Engelhart et al. 2022, doi:10.1038/s41597-022-01779-4 (FLAb copy).

Antigen: PDVDLGDISGINAS, a 14-residue peptide of the SARS-CoV-2 spike HR2 region.

The variants keep the light chain, the linker and the frameworks of Ab-14 (scFv order VH, a (GGGGS)3 linker, VL).
VH: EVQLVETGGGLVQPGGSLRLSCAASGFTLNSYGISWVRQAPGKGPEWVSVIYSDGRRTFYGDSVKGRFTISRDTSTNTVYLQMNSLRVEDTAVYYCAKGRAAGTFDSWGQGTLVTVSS
VL: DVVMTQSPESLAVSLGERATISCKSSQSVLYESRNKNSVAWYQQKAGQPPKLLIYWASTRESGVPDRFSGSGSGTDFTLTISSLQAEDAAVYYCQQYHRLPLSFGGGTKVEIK

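Phage display of a naive human antibody library on the peptide gave the parent. In library AAYL49, one, two or three CDR residues were substituted; doubles and triples were drawn at random. Affinity was read by AlphaSeq, a pooled yeast mating assay with surface-displayed partners. The frequency of each diploid, read from paired DNA barcodes, reflects how well the two displayed proteins bind. Each replicate has its own calibration line, from reference interactions of the BCL2 family. Each pool was mated in three replicate cultures.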

Substitutions are numbered in sequence along the VH above, starting at 1 (not Kabat). Affinities are written as log10 Kd with Kd in nM; a lower number is a better binder. "ND" means that the variant was in the library but no mating with the target was seen in that replicate; the authors take this as a sign of poor binding, and no number exists. Empty control strains, which show no peptide, gave a signal in 15% of pairings with library AAYL49; the median was 4.06 and 95% of these signals were weaker than 2.83. No background was subtracted. The control count says in how many pairings with the empty strains this scFv gave a signal, with their mean in brackets.

{"changes": "G26S/T58W", "replicates, log10 nM": "ND ND ND", "signal with controls": "0 of 9"}
{"changes": "I34K/Y52H/R57S", "replicates, log10 nM": "ND ND 4.19", "signal with controls": "1 of 9 (3.29)"}
{"changes": "G26L/F27M/L29K", "replicates, log10 nM": "ND ND ND", "signal with controls": "1 of 9 (3.26)"}
{"changes": "N30C/V50S/R56F", "replicates, log10 nM": "ND ND ND", "signal with controls": "0 of 9"}
{"changes": "T58I/S63Y/A102E", "replicates, log10 nM": "ND ND ND", "signal with controls": "1 of 9 (4.45)"}
{"changes": "F27K/K65G/G103D", "replicates, log10 nM": "ND ND ND", "signal with controls": "0 of 9"}
{"changes": "G33K/I51Y/G99L", "replicates, log10 nM": "ND ND ND", "signal with controls": "0 of 9"}
{"changes": "V64E/K65S/R100P", "replicates, log10 nM": "ND 4.59 ND", "signal with controls": "1 of 9 (4.17)"}
{"changes": "N30Y/T104F/S107M", "replicates, log10 nM": "ND ND ND", "signal with controls": "0 of 9"}
{"changes": "Y32F/D54S/G61M", "replicates, log10 nM": "ND ND ND", "signal with controls": "0 of 9"}
{"changes": "N30L/V50E/T104P", "replicates, log10 nM": "ND 3.10 ND", "signal with controls": "1 of 9 (2.79)"}
{"changes": "I51M/T58S/G103M", "replicates, log10 nM": "ND ND ND", "signal with controls": "0 of 9"}
{"changes": "T28C/I51W/V64A", "replicates, log10 nM": "3.71 ND 5.07", "signal with controls": "1 of 9 (5.29)"}
{"changes": "G33H/I51F/D54Q", "replicates, log10 nM": "ND ND ND", "signal with controls": "0 of 9"}
{"changes": "N30P/G61M/R100L", "replicates, log10 nM": "2.48 ND ND", "signal with controls": "0 of 9"}
{"changes": "F27W/S53C/F59V", "replicates, log10 nM": "ND ND 4.00", "signal with controls": "2 of 9 (4.11)"}
{"changes": "G26V/T28M", "replicates, log10 nM": "ND ND ND", "signal with controls": "0 of 9"}
{"changes": "L29Y/V50L/G55I", "replicates, log10 nM": "ND 3.08 3.43", "signal with controls": "0 of 9"}

The closing 2 entries, repeated:

changes,"replicates, log10 nM",signal with controls
G26V/T28M,ND ND ND,0 of 9
L29Y/V50L/G55I,ND 3.08 3.43,0 of 9